The values that follow are results of earlier work, collected in PubChem BioAssay AID1811 (Shanghai Institute of Organic Chemistry, 2009).

This is one part of the list. Active and inactive are the calls of the source. Where no limit is named, active and inactive come without a cut-off here.

This data set has as its system beta-glucosidase a. The experiment in a line: PubChem AID 1811. Conditions: PDB complex binding affinities from literature.

As for `O[C@H]1[C@H](O)[C@@H](O)CN2CC[C@H](O)[C@H]12`, the molecule was called active.
